Paper PMC5449093, “Selective inhibitors of trypanosomal uridylyl transferase RET1 establish druggability of RNA post-transcriptional modifications” (RNA Biology, 2016)

Protein sequences, listed by entry. Tags and fused reporters are not part of them.
UniProt O13833, whole entry: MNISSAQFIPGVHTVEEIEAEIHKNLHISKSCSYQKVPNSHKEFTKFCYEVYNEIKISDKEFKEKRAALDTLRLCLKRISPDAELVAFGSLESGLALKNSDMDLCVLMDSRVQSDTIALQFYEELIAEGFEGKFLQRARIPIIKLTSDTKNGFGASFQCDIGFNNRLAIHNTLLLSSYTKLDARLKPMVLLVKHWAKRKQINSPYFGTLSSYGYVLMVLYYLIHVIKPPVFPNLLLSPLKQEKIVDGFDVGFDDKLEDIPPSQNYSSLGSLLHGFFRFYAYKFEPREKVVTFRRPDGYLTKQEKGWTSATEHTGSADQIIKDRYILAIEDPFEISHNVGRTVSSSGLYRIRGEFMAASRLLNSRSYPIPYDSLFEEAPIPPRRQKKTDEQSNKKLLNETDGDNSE

Target: CID1 poly (U) polymerase (Schizosaccharomyces pombe, UniProt O13833)
Details: read-out: CID1 Inhibition IC50; UTP 18 µM, RNA 3 nM, 37 °C

## CC1(COc2ccc(CC3SC(=O)NC3=O)cc2)CCCCC1 (stereo not shown)
  IC50: 1 mM
